The target in this test is recombinant human CHIT1 (Homo sapiens (Human), UniProt Q13231). The experiment in a line: Human CHIT1 Activity Assay. The conditions noted are these: read-out: Activity on hCHIT1, IC50; recombinant human CHIT1, citrate buffer pH 5.2, 37° C., 60 minutes. It counts as biochemical.

Protein sequences, listed by entry. Tags and fused reporters are not part of them. Residues count along the entry.
UniProt Q13231, 22-466: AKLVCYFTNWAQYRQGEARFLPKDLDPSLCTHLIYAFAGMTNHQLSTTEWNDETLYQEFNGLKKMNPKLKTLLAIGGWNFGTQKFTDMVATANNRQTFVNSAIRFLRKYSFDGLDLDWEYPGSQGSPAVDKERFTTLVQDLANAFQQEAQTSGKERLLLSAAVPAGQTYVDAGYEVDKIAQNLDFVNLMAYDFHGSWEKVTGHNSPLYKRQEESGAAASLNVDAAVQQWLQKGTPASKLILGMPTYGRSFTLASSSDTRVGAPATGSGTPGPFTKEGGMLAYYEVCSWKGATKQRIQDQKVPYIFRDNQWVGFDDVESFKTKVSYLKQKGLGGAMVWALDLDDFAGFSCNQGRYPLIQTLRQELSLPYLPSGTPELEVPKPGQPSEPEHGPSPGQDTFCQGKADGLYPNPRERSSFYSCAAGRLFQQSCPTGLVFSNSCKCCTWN

Usually IC50 stands for the midpoint of a concentration-inhibition curve. On to `CS(=O)(=O)N1C[C@H](Cc2ccc(Cl)cc2)N(C2CCN(c3nnc(N)[nH]3)CC2)C[C@@H]1Cc1ccc(Cl)cc1` [Example 36, 5-(4-((2S,5S)-2,5-bis(4-chlorobenzyl)-4-(methylsulfonyl)piperazin-1-yl)piperidin-1-yl)-4H-1,2,4-triazol-3-amine], for which the 50% inhibitory concentration (IC50) fell in the range of 10 to 100 µM.
